The source of these data is US20230192660A1 (priority 2020, published 2023).

Structures are written as SMILES.

One may read the EC50 as the concentration that produces a half-maximal response.

This test has as its target SARS-Co-V2 MPro (Severe acute respiratory syndrome coronavirus 2, UniProt P0DTD1). In words: cell-based. The settings on record: HEK293 cells; estimated from images (FIG. 3) and immunoblots (FIG. 4).

Consider `CCCC[C@H](NC(=O)[C@@H]1[C@@H]2[C@H](CN1C(=O)[C@@H](NC(=O)NC1(CS(=O)(=O)C(C)(C)C)CCCCC1)C(C)(C)C)C2(C)C)C(=O)C(=O)NC1CC1` [narlaprevir], for which the concentration giving a half-maximal response (EC50) is 1 to 3.2 µM.
